{"source": "paper PMC9531438", "about": "“Preclinical development of carrier-free prodrug nanoparticles for enhanced antitumor therapeutic potential with less toxicity” (Journal of Nanobiotechnology, 2022)", "assay": "Pharmacokinetics after intravenous injection", "type": "in vivo", "settings": "mice, i.v., 4 mg/kg based on DOX contents; blood, HPLC with fluorescence detector; WinNonlin", "protocol": "The 6-week male BALB/c and BALB/c nu/nu mice were purchased from NaraBio (Gyeonggi-do, Republic of Korea). Mice were bred under pathogen-free conditions in the Korea Institute of Science and Technology (KIST). All experiments with animals were performed in compliance with the relevant laws and institutional guidelines of Institutional Animal Care and Use Committee (IACUC; approved number of 2020-123) in Korea Institute of Science and Technology (KIST). […] After treatment, blood samples were collected from mice by cardiac puncture after deep anesthesia at pre-determined times, followed by analysis with HPLC with fluorescence detector. The PK parameters including area under the curves (AUC), clearance (CL), volume of distribution (Vd) and half-life (t1/2) were calculated using a WinNonlin software. […] The fluorescence intensities in the tumor regions were quantified using a Living Image software (PerkinElmer, Waltham, MA, USA). The ex vivo NIRF imaging of collected major organs after 9 h of injection was also performed using IVIS Lumina Series III system. […] For this analysis, each tissue was cut into 8-μm sections using rotary microtome and analyzed via confocal laser scanning microscope (CLSM) equipped with 405 diode (405 nm) and HeNe-Red (633 nm) lasers.", "data": [{"smiles": "COc1cccc2c1C(=O)c1c(O)c3c(c(O)c1C2=O)C[C@@](O)(C(=O)CO)C[C@@H]3O[C@H]1C[C@H](N)[C@H](O)[C@H](C)O1", "note": "[DOX, doxorubicin]", "values": [{"measurement": "AUCinf", "result": "22910 ± 5460", "unit": "ng·h/mL"}]}]}
